Assay results published in patent US20030175810A1, “Assay method and system for identification of P2Y receptor agonists and antagonists” (priority 2000, published 2003).

Chains of the proteins cited; added tags and fusions are not shown.
UniProt P08172, whole entry: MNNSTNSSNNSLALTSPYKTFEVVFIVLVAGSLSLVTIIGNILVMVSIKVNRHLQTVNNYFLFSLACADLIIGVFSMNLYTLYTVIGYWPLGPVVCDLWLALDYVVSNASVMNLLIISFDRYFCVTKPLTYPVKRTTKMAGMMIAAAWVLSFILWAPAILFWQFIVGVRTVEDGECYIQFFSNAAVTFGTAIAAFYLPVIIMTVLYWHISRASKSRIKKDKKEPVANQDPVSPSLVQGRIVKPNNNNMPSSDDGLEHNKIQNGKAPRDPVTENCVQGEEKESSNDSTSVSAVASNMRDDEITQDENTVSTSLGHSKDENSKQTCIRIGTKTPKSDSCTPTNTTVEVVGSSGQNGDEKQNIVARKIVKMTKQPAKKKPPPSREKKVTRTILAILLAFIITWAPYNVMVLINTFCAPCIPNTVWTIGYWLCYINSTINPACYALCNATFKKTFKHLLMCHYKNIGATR

Molecular target: m2-muscarinic receptors (Homo sapiens, UniProt P08172)
Assay: GTPase activity of vesicles reconstituted with purified m2-muscarinic receptors and Gαo
Type: biochemical

C[N+](C)(C)CCOC(N)=O [carbachol]
stimulation of GTPase activity: marked stimulation
